The values that follow come from article PMC10681007, “Targeted Degradation of XIAP is Sufficient and Specific to Induce Apoptosis in MYCN-overexpressing High-risk Neuroblastoma” (Cancer Research Communications, 2023).

Several values for one entry are separate records, joined by “and”; a condition that tells them apart may be missing. Equal entries are not always repeated.

The subject of one data set is XIAP and c-IAP1. The data set is described as follows: Immunoblot analysis of XIAP and c-IAP1 expression. Conditions: 10 µmol/L. The text has this:
FIGURE 2 Specific loss of XIAP expression, not c-IAP1, is required for mediating apoptosis in high-risk neuroblastoma cells. A, Summary of IAP antagonists’ efficacy in killing neuroblastoma cells. The IAP antagonists were ranked on the basis of the average potency of killing (IC50) and specificity of killing toward only neuroblastoma cells: (i) A4, (ii) B3, (iii) BV6, (iv) LCL161, (v) CUDC-427, (vi) Debio 1143. B, Immunoblot analysis of c-IAP1, XIAP, PARP, and cleaved caspase-3 expression in neuroblastoma cell lines, BE(2)-C and KELLY, and noncancerous normal tissue cell line, HS5, after treatment with 10 µmol/L of either A4, B3, or BV6 at indicated timings (three independent replicates). C, Graphical representation showing the fold change of caspase-3/7 activity relative to vehicle controls after treatment with 10 µmol/L of either A4, B3, or BV6 at indicated timings (data were expressed as mean ± SD of three independent experiments conducted in duplicates; *, P < 0.05). D, Morphology of cells 48 hours posttreatment with 10 µmol/L of either A4, B3, or BV6. […]
Whole cell lysates harvested were lysed in EBC buffer (pH 8.0 of 50 mM Tris, 0.5% NP-40, 120 mM sodium chloride) containing protease inhibitors and protein concentration were quantified using the Bradford assay (Thermo Fisher Scientific). […]
(Immunoblotting shows a protein as a band on a membrane.)

The next data set relates to BE(2)-C and KELLY cells. In words: Apoptosis (cleaved PARP/caspase-3, Caspase-Glo 3/7). Conditions: 10 µmol/L. How it is done:
(§1) The determination of caspase-3/7 levels as an indication for apoptosis activity was performed using a Caspase-Glo 3/7 assay kit from Promega according to manufacturer's instructions. Cells were seeded at 1 × 10^4 cells per well and treated with 10 µmol/L of IAP antagonists for various indicated timings, followed by bioluminescence measurement using luminescent plate reader, Tecan Infinite200 Pro. The activity of apoptosis was also measured by flow cytometry using the Dead Cell Apoptosis Kit with Annexin V FITC and PI (Thermo Fisher Scientific) according to manufacturer's instructions. Cells harvested from lentiviral infection were subjected to Annexin V (2.5 µL) and PI (40 ng/mL, 0.5 µL) staining, followed by flow cytometric analysis using BD LSRFortessa cell analyzer with excitation/emission spectra of 494 nm/518 nm for FITC and 535 nm/617 nm for PI.
(§2) FIGURE 2 Specific loss of XIAP expression, not c-IAP1, is required for mediating apoptosis in high-risk neuroblastoma cells. A, Summary of IAP antagonists’ efficacy in killing neuroblastoma cells. […] C, Graphical representation showing the fold change of caspase-3/7 activity relative to vehicle controls after treatment with 10 µmol/L of either A4, B3, or BV6 at indicated timings (data were expressed as mean ± SD of three independent experiments conducted in duplicates; *, P < 0.05). […]

A further data set deals with HS5 cells. Described as above. Conditions: 10 µmol/L. The class given is cell-based. As for the experimental part:
as §1, §2

The subject of a further data set is THLE3 and HS5. The data set is described as follows: Toxicity and tolerability in noncancerous normal tissue-derived cell lines. Conditions: THLE3 and HS5 versus neuroblastoma cells. How it is done: Cell viability was measured in real time using RealTime-Glo MT Cell Viability Assay as according to manufacturer's instructions from Promega. Cells were seeded at 1 × 10^4 cells per well and treated with a range of doses of indicated antagonists, followed by continuous bioluminescence reading every 24 hours for 3 days using luminescent plate reader, Varioskan (SkanIT software). IC50 was determined using GraphPad Prism software.
To evaluate this, noncancerous normal tissue-derived cell lines THLE3 and HS5 were utilized to evaluate toxicity and tolerability. XIAP-specific antagonists A4 and B3 were the least toxic to noncancerous cells and were the most discriminatory in killing neuroblastoma cells (Supplementary Table S2; Fig. 2A). In contrast, the pan-IAP antagonists especially LCL161, CUDC-427, and Debio 1143, were more toxic toward noncancerous cells than neuroblastoma cells and thus, deemed unsuitable for use in neuroblastoma treatment. On the basis of their overall potency and specificity toward neuroblastoma cells over noncancerous normal cells, A4, B3, and BV6 were selected as the more efficacious antagonists to be studied further in subsequent experiments (Fig. 2A).

The nature of data set [1]: Body weight and tolerability in PDX mice. As for the experimental part:
Tumor samples collected from neuroblastoma PDXs were infected with luciferase lentivirus. Tumor analysis was performed by intraperitoneal injection of D-luciferin solution (150 mg/kg; PerkinElmer) into the mice and imaged with an IVIS spectrum. Bioluminescent signals were then quantified using Living Imaging 4.4 (Caliper Life Sciences). After 4 weeks of tumor implantation into retroperitoneal space of mice, tumor-bearing mice were randomly assigned to receive either vehicle (DMSO; 1 mL/kg) or XIAP-specific antagonist A4 (10 mg/kg; n = 9 per group). All agents were administered by intraperitoneal injection twice weekly for consecutive 3 weeks. General health state of the mice were monitored weekly and were euthanized upon reaching humane endpoints. Survival data were recorded and Kaplan–Meier curves were plotted using GraphPad Prism software.
(A-B) Immunoblot analysis of XIAP, cleaved PARP and cleaved caspase-3 expression in tumors harvested from treated neuroblastoma PDXs. Neuroblastoma PDXs were treated with 10 mg/kg A4 via intraperitoneal injection. Tumors were harvested over the following time courses of 0, 0.5, 1, 2, 4, 24 and 48 hours post-dosing. β-actin is used as internal control. (C) Average weight of vehicle-or A4-treated mice over the course of treatment.

Turning to `COC(=O)c1[nH]c2ccc(Cl)cc2c1NC(=O)CN1CCN(Cc2ccccc2)CC1`, the “XIAP and c-IAP1 expression (immunoblot)” value is “loss of XIAP expression over time with intact c-IAP1 expression” in the data set on XIAP and c-IAP1 (BE(2)-C and KELLY cells); “minimal change in XIAP expression with c-IAP1 remaining intact” in the data set with XIAP and c-IAP1 (HS5 cells). Moreover, in the data set with BE(2)-C and KELLY cells, the “apoptosis (PARP and caspase-3 cleavage, caspase-3/7 activity)” value is on record as “apoptosis was induced”. Also, the apoptosis entry in the data set with HS5 cells is listed as “minimal apoptosis observed”. Moreover, the “toxicity to noncancerous cells” value in the data set with THLE3 and HS5 is recorded as “least toxic to noncancerous cells”. For the same molecule, the “weight loss or adverse effects” value in data set [1] (10 mg/kg, twice-weekly dosing for up to 3 weeks) is on record as “no substantial weight loss or adverse effects”. The “weight, single animals” value in data set [1] (wk 7 d 1, 10 mg/kg i.p. twice weekly from week 4) is 30 g and 28.3 g and 31.7 g.
